Earlier results in article PMC9414616.

Amino acid sequences for entries named in this document (tags omitted).
UniProt P30989, whole entry: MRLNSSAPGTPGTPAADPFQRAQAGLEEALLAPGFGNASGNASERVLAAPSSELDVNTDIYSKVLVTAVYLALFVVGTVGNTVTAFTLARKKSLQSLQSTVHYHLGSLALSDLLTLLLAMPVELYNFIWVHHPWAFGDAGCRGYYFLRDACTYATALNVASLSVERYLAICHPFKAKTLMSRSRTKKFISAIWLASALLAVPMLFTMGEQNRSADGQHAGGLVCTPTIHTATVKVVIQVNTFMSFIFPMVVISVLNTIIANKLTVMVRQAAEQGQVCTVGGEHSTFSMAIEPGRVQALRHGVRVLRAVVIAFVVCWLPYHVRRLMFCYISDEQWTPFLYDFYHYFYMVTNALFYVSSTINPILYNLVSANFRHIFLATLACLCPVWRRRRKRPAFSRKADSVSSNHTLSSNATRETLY

Biological target: NTSR1 (UniProt P30989)

- Kd: 500 pM
Substance: neurotensin (from UniProt P30990)
